Measurements: US6262116A, “Transcription therapy for cancers” (Sloan-Kettering Institute for Cancer Research, priority 1998, dated 2001)

Tested on: acute promyelocytic leukemia
Assay: Clinical study in a patient with acute promyelocytic leukemia
Type: in vivo, human
Conditions: first 11 days, all-trans retinoic acid alone, 45 mg/m^2/day oral

CC1=C(/C=C/C(C)=C/C=C/C(C)=C/C(=O)O)C(C)(C)CCC1 [retinoic acid, all-trans-retinoic acid]
platelet count: fell progressively; also recorded: progressive decline in platelet count

Entries after “also recorded” stand apart in the source; their conditions may differ.
